Data from patent US20090298915A1, “TOPICAL DRUG DELIVERY” (priority 2006, published 2009).

Sequences of proteins named here, by UniProt entry; tags and fusion partners are left off. A change or cut given only in a name is not applied to a line headed by its entry.
UniProt Q01726: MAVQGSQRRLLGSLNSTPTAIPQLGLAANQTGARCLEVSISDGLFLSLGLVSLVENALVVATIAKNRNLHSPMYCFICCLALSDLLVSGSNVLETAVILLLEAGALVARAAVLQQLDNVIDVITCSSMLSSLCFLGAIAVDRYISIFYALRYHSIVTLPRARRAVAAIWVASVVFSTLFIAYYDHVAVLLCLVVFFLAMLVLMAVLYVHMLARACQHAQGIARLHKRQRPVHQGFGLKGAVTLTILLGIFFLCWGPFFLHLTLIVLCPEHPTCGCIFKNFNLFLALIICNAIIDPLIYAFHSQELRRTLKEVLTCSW

Target: T1, MC1R (Homo sapiens, UniProt Q01726)
T1 construct: expressed in transfected cells
Assay: Competitive ligand binding assay at the MC1R with 125I-NDP-MSH
Settings: B16UWT-3 cells, competition with 125I-NDP-MSH, compared with αMSH
Procedure: Competitive ligand binding experiments at the MC1R were carried out using B16UWT-3 cells in duplicate wells on two separate occasions. Forty thousand cells per well were seeded into 96-well plates, and following overnight incubation, the cells were washed once with binding buffer (minimal essential medium with Earle's salts, 25 mM HEPES pH 7.0, 0.2% bovine serum albumin, 1 mM 1,10-phenanthroline, 0.5 mg/l leupeptine and 200 mg/l bacitracin). Cells were incubated for 2 hours at room temperature with 0.05 ml of binding buffer containing 15,000 c.p.m. of ^125I-NDP-MSH and concentrations of unlabelled ligand ranging from 10^−2-10^−3 nM. The cells were subsequently washed twice with 0.2 ml of ice cold binding buffer and detached from the plates with 0.1 ml of 0.1 M NaOH. Radioactivity was counted using a Packard auto-Gamma Counter (Packard Bioscience Ltd., UK) and data analysed with a software package for radioligand binding analyses (GraphPad Software, Inc. San Diego, USA).

binding affinity for MC1R: greater affinity for MC1R
Substance: Nle^4-D-Phe^7-αMSH [NDP-MSH]
